From patent US10632119B2, “Fused bicyclic 2,4-diaminopyrimidine derivative as a dual ALK and FAK inhibitor” (priority 2012, dated 2020)

By UniProt entry, the sequences of proteins in these tests, tags left out. Chains listed by the source or under a name are the forms on record and can include a tag or linker. Residues count along the entry.
UniProt Q9UM73, with tags, fused parts or gaps: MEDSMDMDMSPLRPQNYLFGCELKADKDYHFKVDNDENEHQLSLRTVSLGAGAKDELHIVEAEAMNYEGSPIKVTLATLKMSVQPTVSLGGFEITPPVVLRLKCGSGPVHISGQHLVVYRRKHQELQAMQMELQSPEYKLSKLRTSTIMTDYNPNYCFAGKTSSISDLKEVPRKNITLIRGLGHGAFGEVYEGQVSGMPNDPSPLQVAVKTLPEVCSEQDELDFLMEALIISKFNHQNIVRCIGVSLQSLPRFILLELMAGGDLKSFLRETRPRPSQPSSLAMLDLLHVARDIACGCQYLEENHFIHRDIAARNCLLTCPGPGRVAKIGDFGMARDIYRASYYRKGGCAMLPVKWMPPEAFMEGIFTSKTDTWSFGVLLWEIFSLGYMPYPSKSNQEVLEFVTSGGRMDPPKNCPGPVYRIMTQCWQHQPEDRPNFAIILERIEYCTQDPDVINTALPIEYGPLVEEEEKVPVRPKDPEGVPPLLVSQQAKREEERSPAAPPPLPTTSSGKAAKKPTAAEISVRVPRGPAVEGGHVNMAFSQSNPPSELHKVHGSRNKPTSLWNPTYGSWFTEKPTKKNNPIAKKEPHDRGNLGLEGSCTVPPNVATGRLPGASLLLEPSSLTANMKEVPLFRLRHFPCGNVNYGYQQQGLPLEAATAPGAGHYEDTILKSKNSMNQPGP
UniProt Q9UM73, 19-1620: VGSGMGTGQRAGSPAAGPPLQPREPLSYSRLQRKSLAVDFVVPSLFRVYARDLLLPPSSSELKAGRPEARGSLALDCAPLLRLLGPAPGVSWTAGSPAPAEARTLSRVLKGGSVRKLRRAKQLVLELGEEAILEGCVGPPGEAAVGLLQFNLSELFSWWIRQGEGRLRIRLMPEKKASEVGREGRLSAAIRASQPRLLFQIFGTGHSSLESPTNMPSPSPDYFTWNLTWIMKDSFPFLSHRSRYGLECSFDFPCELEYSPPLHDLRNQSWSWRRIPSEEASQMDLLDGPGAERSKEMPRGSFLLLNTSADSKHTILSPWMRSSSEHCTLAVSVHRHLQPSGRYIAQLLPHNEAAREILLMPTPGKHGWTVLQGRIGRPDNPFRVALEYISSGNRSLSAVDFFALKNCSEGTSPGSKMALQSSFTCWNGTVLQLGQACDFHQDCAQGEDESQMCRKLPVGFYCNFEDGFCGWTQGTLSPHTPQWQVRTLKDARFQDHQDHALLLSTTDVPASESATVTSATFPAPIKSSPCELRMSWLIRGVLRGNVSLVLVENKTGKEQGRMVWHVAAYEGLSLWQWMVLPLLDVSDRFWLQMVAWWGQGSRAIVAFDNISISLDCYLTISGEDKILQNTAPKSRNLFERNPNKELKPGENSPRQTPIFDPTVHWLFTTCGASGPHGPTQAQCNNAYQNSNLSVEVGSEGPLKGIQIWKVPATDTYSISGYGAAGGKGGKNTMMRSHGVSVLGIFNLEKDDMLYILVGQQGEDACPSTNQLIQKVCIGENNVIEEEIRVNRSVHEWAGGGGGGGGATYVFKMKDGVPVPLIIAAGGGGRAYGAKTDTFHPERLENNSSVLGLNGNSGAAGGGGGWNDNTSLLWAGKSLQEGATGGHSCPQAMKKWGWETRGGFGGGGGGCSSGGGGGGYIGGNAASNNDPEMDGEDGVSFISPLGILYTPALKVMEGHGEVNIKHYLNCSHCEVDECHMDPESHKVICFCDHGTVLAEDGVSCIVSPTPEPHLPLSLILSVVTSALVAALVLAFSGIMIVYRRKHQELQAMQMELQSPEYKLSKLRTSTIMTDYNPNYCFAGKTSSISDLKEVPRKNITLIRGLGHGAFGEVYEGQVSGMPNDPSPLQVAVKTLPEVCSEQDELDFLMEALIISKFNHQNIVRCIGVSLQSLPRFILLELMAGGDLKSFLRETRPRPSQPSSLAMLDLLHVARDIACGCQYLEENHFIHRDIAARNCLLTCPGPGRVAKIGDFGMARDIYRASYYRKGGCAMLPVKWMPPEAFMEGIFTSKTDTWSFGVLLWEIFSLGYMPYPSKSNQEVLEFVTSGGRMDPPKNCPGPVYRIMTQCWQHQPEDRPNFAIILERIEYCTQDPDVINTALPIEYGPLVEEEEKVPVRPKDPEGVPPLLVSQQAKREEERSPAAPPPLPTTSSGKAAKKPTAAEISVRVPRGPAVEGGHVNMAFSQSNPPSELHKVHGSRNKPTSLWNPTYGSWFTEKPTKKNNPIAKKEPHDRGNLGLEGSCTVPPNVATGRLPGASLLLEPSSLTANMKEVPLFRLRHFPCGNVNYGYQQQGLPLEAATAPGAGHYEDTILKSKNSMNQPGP
UniProt Q05397, whole entry: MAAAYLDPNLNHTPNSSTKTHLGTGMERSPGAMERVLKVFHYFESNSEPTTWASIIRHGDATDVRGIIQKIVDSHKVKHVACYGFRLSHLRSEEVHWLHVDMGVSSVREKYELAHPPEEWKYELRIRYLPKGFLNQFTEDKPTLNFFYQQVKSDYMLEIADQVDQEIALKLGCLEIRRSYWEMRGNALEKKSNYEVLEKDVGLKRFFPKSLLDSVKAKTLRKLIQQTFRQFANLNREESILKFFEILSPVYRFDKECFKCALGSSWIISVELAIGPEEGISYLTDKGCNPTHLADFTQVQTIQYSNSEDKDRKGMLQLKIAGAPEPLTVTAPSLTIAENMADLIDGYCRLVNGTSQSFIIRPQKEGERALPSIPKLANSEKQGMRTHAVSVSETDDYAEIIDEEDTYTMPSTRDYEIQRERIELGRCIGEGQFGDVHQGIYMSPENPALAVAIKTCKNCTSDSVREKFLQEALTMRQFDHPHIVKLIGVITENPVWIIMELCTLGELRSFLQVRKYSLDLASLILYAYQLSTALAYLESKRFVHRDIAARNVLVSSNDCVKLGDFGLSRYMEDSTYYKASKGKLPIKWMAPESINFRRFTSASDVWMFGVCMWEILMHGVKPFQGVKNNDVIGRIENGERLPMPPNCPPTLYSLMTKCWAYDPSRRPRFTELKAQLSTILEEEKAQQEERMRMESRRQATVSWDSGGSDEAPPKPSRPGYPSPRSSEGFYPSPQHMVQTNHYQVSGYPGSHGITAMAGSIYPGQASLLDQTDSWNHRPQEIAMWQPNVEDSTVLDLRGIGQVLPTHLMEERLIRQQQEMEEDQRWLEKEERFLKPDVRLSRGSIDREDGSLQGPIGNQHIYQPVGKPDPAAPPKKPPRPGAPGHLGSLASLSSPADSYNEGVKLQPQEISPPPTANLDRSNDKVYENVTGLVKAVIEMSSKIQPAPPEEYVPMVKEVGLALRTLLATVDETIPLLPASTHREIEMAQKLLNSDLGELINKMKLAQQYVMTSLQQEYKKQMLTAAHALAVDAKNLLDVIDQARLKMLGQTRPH

Columns and labels:
ALK [1] = target: T1, ALK (Homo sapiens, UniProt Q9UM73); assay: ALK cellular assay; type: cell-based
ALK [2] = target: T1, ALK; assay: ALK enzymatic assay; type: biochemical
FAK = FAK (Homo sapiens, UniProt Q05397); assay: FAK cellular assay; type: cell-based

SMILES: CNC(=O)c1ccccc1Nc1nc(Nc2ccc3c(c2OC)CCC[C@H](N2CCN(CCO)CC2)C3)ncc1Cl [CEP-37440, 2-[[5-chloro-2-[[(6S)-6-[4-(2-hydroxyethyl)piperazin-1-yl]-1-methoxy-6,7,8,9-tetrahydro-5H-benzo[7]annulen-2-yl]amino]pyrimidin-4-yl]amino]-N-methyl-benzamide]
- IC50 (ALK [1]; 75% human plasma, read-out: ALK cellular IC50 in 75% human plasma): 120 nM
- IC50 (ALK [1]; 75% murine plasma, read-out: ALK cellular IC50 in 75% murine plasma): 200 nM
- IC50 (ALK [1]; read-out: ALK cellular IC50): 40 nM
- IC50 (ALK [2]): 3.5 nM
- IC50 (FAK): 82 nM
